This test concerns the target Bifunctional epoxide hydrolase 2 (Homo sapiens, UniProt P34913). Briefly: Inhibition Assay: Compounds were tested for their ability to inhibit recombinant soluble epoxide hydrolase (sEH) protein. The assay utilizes (3-Phhenyl-oxiranyl)-acetic acid cyano-(6-methoxy-naphthalen-2-yl)-methyl ester (PHOME), a sensitive substrate for sEH that can be used to monitor the activity of both human and murine enzymes. Hydrolysis of the substrate epoxide yields a highly fluorescent product, 6-methoxy-2-Naphthaldehyde, which can be monitored at excitation and emission wavelengths of 330 and 465 nm, respectively. See Wolf et al., Anal Biochem 355:71-80, 2006 PMID: 16729954. Human recombinant sEH was incubated with substrate and compounds ranging in concentration from 0.1 to 1000 nM.

Protein sequences, listed by entry. Tags and fused reporters are not part of them.
UniProt P34913, whole entry: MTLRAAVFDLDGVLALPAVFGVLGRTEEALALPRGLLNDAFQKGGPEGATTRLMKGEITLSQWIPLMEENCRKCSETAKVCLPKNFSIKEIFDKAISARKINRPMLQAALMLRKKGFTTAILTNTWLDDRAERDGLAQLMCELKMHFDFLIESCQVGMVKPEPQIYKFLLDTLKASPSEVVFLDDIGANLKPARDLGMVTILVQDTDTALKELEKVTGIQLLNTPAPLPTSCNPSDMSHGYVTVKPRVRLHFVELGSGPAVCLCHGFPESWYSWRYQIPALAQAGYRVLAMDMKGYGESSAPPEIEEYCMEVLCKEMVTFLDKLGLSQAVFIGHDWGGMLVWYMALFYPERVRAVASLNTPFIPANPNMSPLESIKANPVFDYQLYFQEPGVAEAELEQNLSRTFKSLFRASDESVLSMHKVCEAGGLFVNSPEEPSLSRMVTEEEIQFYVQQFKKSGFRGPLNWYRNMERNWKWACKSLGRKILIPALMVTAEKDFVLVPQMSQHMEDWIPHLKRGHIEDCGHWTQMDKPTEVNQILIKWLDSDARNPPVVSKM

pIC50: −log10 of the molar value.

The pIC50 is −log10 of the IC50, conventionally taken in molar units.

For `CCCCCNC(=O)NCCCC/C=C\CCCCCCC(=O)N[C@H](CC(=O)O)C(=O)O`, the negative-log IC50 (pIC50) was 6.41.

The values are drawn from ChEMBL document CHEMBL3886235, “Epoxyeicosatrienoic acid analogs and methods of making and using the same” (2015).
